## AlphaSeq binding of Ab-14 heavy chain variants to a spike HR2 peptide

Antigen: PDVDLGDISGINAS, a 14-residue peptide of the SARS-CoV-2 spike HR2 region.

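AAYL49 was designed without a model: most single CDR substitutions and a random sample of double and triple ones. AlphaSeq pools MATa yeast showing the antibodies with MATalpha yeast showing the peptide. The frequency of each diploid, read from paired DNA barcodes, reflects how well the two displayed proteins bind. A regression on co-assayed BCL2-family reference pairs converts the normalised counts of each replicate to an apparent Kd. Each pool was mated in three replicate cultures.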

Each scFv is VH, three GGGGS repeats, VL, as in the parent Ab-14, and differs from it in the CDRs of the heavy chain only.
VH: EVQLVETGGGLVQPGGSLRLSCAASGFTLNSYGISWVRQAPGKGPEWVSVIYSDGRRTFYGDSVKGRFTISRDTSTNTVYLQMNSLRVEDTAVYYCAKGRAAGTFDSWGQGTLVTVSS
VL: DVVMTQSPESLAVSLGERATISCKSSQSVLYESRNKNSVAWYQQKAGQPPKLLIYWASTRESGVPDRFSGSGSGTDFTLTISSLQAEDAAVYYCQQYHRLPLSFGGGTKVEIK

Changes read parent residue, position, new residue, counted from the first residue of the VH shown.
The read-out is the apparent dissociation constant on a log10 scale (nM): the lower, the stronger.
Where no diploid with the target was found in that replicate, the entry reads "nd": below detection, most likely a poor binder, though not proof of it.
Three control strains display no target. For library AAYL49, 15% of the pairings with them gave a signal, with a median of 4.06 and one signal in twenty below 2.83, so weak values seen in few replicates may be background. For each scFv, signals with the empty controls are counted beside the result, with their mean in brackets.

changes,log10 Kd (nM) by replicate,control signals
F27A/V64P/D106Q,nd / 4.10 / 3.79,0/9
G61A/K65I/A102C,nd / 3.68 / nd,0/9
D54W,nd / 3.96 / nd,1/9 (3.82)
N30R/T58P,4.15 / nd / nd,0/9
F27D/F59E/D62K,1.07 / 1.32 / 1.10,1/9 (3.84)
S31F/I51M/D54I,nd / 3.95 / 5.36,1/9 (2.36)
V64A/T104L/D106A,nd / nd / nd,0/9
G103W/T104I/S107N,0.65 / 0.71 / 0.72,2/9 (3.70)
T28V/R56H/G61P,nd / nd / nd,1/9 (3.65)
I34S/S107Q,nd / nd / nd,1/9 (4.07)
T28I/S53Y/A101R,nd / nd / nd,0/9
S35T/G61Q/G99W,nd / nd / nd,2/9 (4.22)
G33P/D54E/T58D,nd / nd / nd,0/9
D54R/G103T/D106C,nd / nd / nd,0/9
F27C/G33R/S53F,nd / nd / nd,0/9
N30E/I51L/T58M,2.92 / 2.35 / 1.56,1/9 (3.52)
S35Y/Y60S/G61H,nd / nd / nd,0/9
L29C/S31N/Y52H,nd / nd / nd,0/9
R56F/R100W/T104G,nd / nd / nd,2/9 (4.54)
G33S/D62I/G99S,nd / nd / nd,0/9
S53W/D54R/A102F,nd / 3.75 / nd,1/9 (4.14)
D54M/G55H,nd / nd / nd,0/9
Y32E/D54S/F105C,nd / 3.64 / nd,3/9 (4.55)
G33A/V50A,nd / 3.87 / nd,3/9 (3.83)
R100E/G103K/T104Q,nd / nd / 3.54,0/9
S35M/Y60L/S63G,4.80 / nd / nd,1/9 (4.42)
S31L/G61H,0.72 / 0.89 / 0.70,1/9 (4.10)
G26W/T28I/R100H,2.08 / 3.00 / 2.74,2/9 (3.83)
F27E/S35V,1.84 / 1.73 / 1.83,3/9 (3.42)
T28V/S35E/Y60H,nd / 3.18 / nd,2/9 (4.59)
F27E/Y32R/G55L,nd / 3.45 / 4.04,1/9 (4.79)
I51V/Y52M/F105L,4.75 / nd / nd,7/9 (4.65)
N30W/I34L/D62F,4.32 / nd / nd,3/9 (4.11)
S53V/T58H/S63G,4.09 / 4.29 / 5.11,6/9 (4.77)
G26E/I51Y/S63N,nd / nd / nd,1/9 (3.82)
D54F/T58Q/A102Y,nd / nd / nd,3/9 (3.92)
I51E/R57Y/T104Q,3.46 / nd / nd,2/9 (3.01)
D54R/T104D/D106L,nd / nd / nd,1/9 (2.41)
T28P/T58C,nd / nd / 4.82,1/9 (4.28)
L29A/S53G/R100P,nd / nd / nd,1/9 (4.83)
N30T/I51Q/S63C,nd / nd / nd,2/9 (3.97)

Values reported by Engelhart et al. 2022, doi:10.1038/s41597-022-01779-4 (FLAb copy).